Experimental data from paper PMC10360169 (Frontiers in Immunology, 2023).

System: Acar3
Type: binding, great reed warbler Acrocephalus arundinaceus
Conditions: Table S5, half-life estimated from dissociation in scintillation proximity assay

In the case of FMYSDFHFI [9-mer peptide], the “Stability T½ (h), peptide - Acar3” value is reported as 0.1 h.
